From patent US6387905B2, “Compounds useful for inhibition of farnesyl protein transferase” (Schering Corporation, priority 1996, dated 2002)
pIC50: −log10 of the molar value.

Assays:
[1] = target: farnesyl protein transferase (FPT), H-ras (Homo sapiens, UniProt P49354+P49356); test: FPT IC50 (H-ras), inhibition of farnesyl protein transferase, in vitro enzyme assay; assay type: biochemical
Experimental: (§1) FPT IC50 (inhibition of farnesyl protein transferase, in vitro enzyme assay) and COS Cell IC50 (Cell-Based Assay) were determined following the assay procedures described in WO 95/10516, published Apr. 20, 1995. GGPT IC50 (inhibition of geranylgeranyl protein transferase, in vitro enzyme assay), Cell Mat Assay, and anti-tumor activity (in vivo anti-tumor studies) could be determined by the assay procedures described in WO 95/10516. The disclosure of WO 95/10516 is incorporated herein by reference thereto.

[2] = target: farnesyl protein transferase (FPT), K-ras (Homo sapiens, UniProt P49354+P49356); test: FPT IC50 (K-ras), inhibition of farnesyl protein transferase, in vitro enzyme assay; assay type: biochemical
Experimental: as §1

pIC50 [1]: 8.30 | pIC50 [2]: 7.69
Structure (SMILES): NCC(=O)N1CCC(CC(=O)N2CCC([C@H]3c4ncc(Br)cc4CCc4cc(Cl)cc(Br)c43)CC2)CC1 [Example 2]
